Binding of CDR-mutated scFvs to a peptide of the spike HR2 region

From the AlphaSeq antibody data of Engelhart et al. 2022 (doi:10.1038/s41597-022-01779-4), copy in the FLAb collection.

Binding partner: SARS-CoV-2 spike HR2 peptide, sequence PDVDLGDISGINAS.

Ab-91 is the parent antibody, in scFv form: VL, then a 15-residue (Gly4Ser)3 linker, then VH. The light chain is unchanged in all variants.
VL: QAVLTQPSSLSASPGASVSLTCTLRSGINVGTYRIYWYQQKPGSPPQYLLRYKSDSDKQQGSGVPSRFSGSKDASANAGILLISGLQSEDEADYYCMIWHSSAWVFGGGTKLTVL
VH: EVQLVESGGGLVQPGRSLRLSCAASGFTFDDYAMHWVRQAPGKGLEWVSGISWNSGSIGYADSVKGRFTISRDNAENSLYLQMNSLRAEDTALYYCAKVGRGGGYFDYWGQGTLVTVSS

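The parent was found by panning a naive human phage display library on the peptide. AAYL51 was designed without a model: most single CDR substitutions and a random sample of double and triple ones. Affinity was read by AlphaSeq, a pooled yeast mating assay with surface-displayed partners. Mating (16 h, 30 °C) was followed by selection of diploids and sequencing of their barcodes. A regression on co-assayed BCL2-family reference pairs converts the normalised counts of each replicate to an apparent Kd. There are three technical replicates.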

Each variant is given by its three heavy chain CDRs, as the data file delimits them; those of the parent are GFTFDDYAMH, GISWNSGSIGYADSVK, VGRGGGYFDY.
This list gathers variants with a substitution at A33 (VH, numbered from residue 1).
The read-out is the apparent dissociation constant on a log10 scale (nM): the lower, the stronger.
Averages over replicates are reported, and they cover detected replicates only.
"no signal" marks a missing value. The strain was present, yet no cells mated with the target were sequenced in any replicate, which points to weak or no binding.
In this assay the parent's reference entry averaged 1.86; its copy inside this library read 0.88.

Variant GFTFDDYYMH / GISWNSGSIGYADSWK / VGRGGGYFFY gave no signal (0 of 3 replicates). Variant GFTFDDYTMH / GISWNSGSIGYADSVK / VGRGCGYVDY showed no signal (0 of 3 replicates). Variant GFTFDDYEMH / GISWNVGSIGYADSVK / AGRGGGYFDY gave no signal (0 of 3 replicates). Variant GMTFDDYVMH / GISWNSGSIGYADSVK / TGRGGGYFDY gave no signal (0 of 3 replicates). For GFTFDDYPMH / GISWISGSIGYADSVK / LGRGGGYFDY, the assay gave no signal (0 of 3 replicates). Variant GFTFDDYIMH / GISWNSYSIGYADSVK / VERGGGYFDY showed no signal (0 of 3 replicates).

Variant GFTFDDYYMN / GISWNSGSIGCADSVK / VGRGGGYFDY gave no signal (0 of 3 replicates). For GFTFDDYEMH / IISWNSGSIGYADSVK / VGRGGAYFDY, the assay gave 3.35 (1 of 3 replicates). For GFTFDDYLMI / GISWNSGSIGYADSVC / VGRGGGYFDY, the assay gave 4.71 (1 of 3 replicates). For GFTFDDYNMH / VISWNSGSIGYADSVK / VGRGGGYFDC, the assay gave no signal (0 of 3 replicates). Variant GFTFDDYYMH / GISWNSGSIGYADSVC / VGRGGGYFKY gave 4.25 (1 of 3 replicates). Variant GETFDDYCMH / GISWNSGSIGYADSVK / VGRGGGYFDY showed 4.15 (1 of 3 replicates).

With GFTFPDYWMH / GISWNSGSIGYMDSVK / VGRGGGYFDY the result was no signal (0 of 3 replicates). With GFTFDDYQMH / GISWNSGSIGYADSFK / VGRGGGYFDY the result was 2.12 (3 of 3 replicates). With GFTFDDYWMH / GIMWNSGSIGYADTVK / VGRGGGYFDY the result was 5.45 (1 of 3 replicates). With GFTFDDYVMM / GISWNSGAIGYADSVK / VGRGGGYFDY the result was 5.16 (2 of 3 replicates). Variant GFTFDDYVMH / GISWNSGSTGPADSVK / VGRGGGYFDY gave no signal (0 of 3 replicates). For GFTFDDYSMH / GISWNSGSIGYADSVK / VGFGGGYFDY, the assay gave 2.89 (2 of 3 replicates).

Variant GFTFDDYMMH / GISWRSGSPGYADSVK / VGRGGGYFDY showed no signal (0 of 3 replicates). Variant GSTFDDYMMH / GISWNSGSIGYADSVK / MGRGGGYFDY gave 3.26 (1 of 3 replicates). For GFTFDDYHMH / GISWHSGSIGYADSVK / VGRGYGYFDY, the assay gave 3.90 (1 of 3 replicates). For GFTFDDYDMH / GISWNSGSIGYAFGVK / VGRGGGYFDY, the assay gave 5.13 (1 of 3 replicates). For GFTFDDYWMH / GISWNSGQIGYARSVK / VGRGGGYFDY, the assay gave 4.03 (1 of 3 replicates). For WFTFDDYYMH / GISWNSGSIGYRDSVK / VGRGGGYFDY, the assay gave 6.34 (1 of 3 replicates).

Variant GFTFDDYNMH / GYSWNSGSIGYADSVK / VGRGGGYFDV gave 5.11 (3 of 3 replicates). Variant GFTFDDYNMH / GIEWNSGSIGYADSVK / VGYGGGYFDY showed 5.15 (2 of 3 replicates). For GFTFDDYCMH / GISWNSGSIGYADSVK / VARGGGVFDY, the assay gave no signal (0 of 3 replicates). For GFTFDDYTMH / GISWNSGVIGYADGVK / VGRGGGYFDY, the assay gave 3.98 (1 of 3 replicates). Variant GFTFDDYNMH / GISWNSFFIGYADSVK / VGRGGGYFDY showed no signal (0 of 3 replicates). For GFTFDDSCMH / GIPWNSGSIGYADSVK / VGRGGGYFDY, the assay gave no signal (0 of 3 replicates).

With GFTFDDYDMH / GISWNSGSIGYADSVA / VGRGGHYFDY the result was 4.07 (1 of 3 replicates). Variant GMTFDDYMMH / GISWNSGSIGYADSVK / VGRGGGYFRY showed no signal (0 of 3 replicates). For GFTFDDYHMH / GISWNSGSIGYADSVK / VGRGVGYFLY, the assay gave 3.59 (1 of 3 replicates). For GFTFDDYGMH / GISSNSGSIGYADSVF / VGRGGGYFDY, the assay gave 0.39 (3 of 3 replicates). For GFTFDDYEMH / GWSWNSGSIGYADSVK / VGRGGYYFDY, the assay gave no signal (0 of 3 replicates). Variant GFMFDDYTMH / GISWNSGSIGYADSVK / VGRGGGYFDY gave 5.16 (1 of 3 replicates).

For GFTFDDYTMH / GISWNSGSIGWADSVK / VTRGGGYFDY, the assay gave 5.93 (2 of 3 replicates). For GFTFDDYCMH / GISWNSGSIMCADSVK / VGRGGGYFDY, the assay gave 5.20 (1 of 3 replicates). Variant GFTFDDYMMH / GISWNSGFIGYADSVK / VGRGGEYFDY gave no signal (0 of 3 replicates). With GFTFDDYPMH / GKSWNSNSIGYADSVK / VGRGGGYFDY the result was no signal (0 of 3 replicates). Variant GMTFDDYMMH / GISWNSGSIGIADSVK / VGRGGGYFDY gave no signal (0 of 3 replicates). With GFTFDDYQMH / GISWNSGSIGYADSSK / VGRGGGYFDY the result was no signal (0 of 3 replicates).

For CFTFDDYNMH / GISWNSGIIGYADSVK / VGRGGGYFDY, the assay gave 4.21 (1 of 3 replicates).

Picked from the list: the 3 lowest averages where every replicate gave a value.

With GFTFDDYGMH / GISSNSGSIGYADSVF / VGRGGGYFDY the result was 0.39 (3 of 3 replicates).
With GFTFDDYQMH / GISWNSGSIGYADSFK / VGRGGGYFDY the result was 2.12 (3 of 3 replicates).
With GFTFDDYNMH / GYSWNSGSIGYADSVK / VGRGGGYFDV the result was 5.11 (3 of 3 replicates).

As a blank, each scFv also met three strains without target: over library AAYL51, 21% of these pairings were detected, typically at 4.54 and seldom below 3.26.